# AlphaSeq binding of Ab-14 light chain variants to a spike HR2 peptide

Source: Li et al. 2023 (doi:10.1038/s41467-023-39022-2), MIT Lincoln Laboratory and A-Alpha Bio; data file from the FLAb repository.

All variants were tested on one target, the spike HR2 peptide PDVDLGDISGINAS (SARS-CoV-2).

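The parent was found by panning a naive human phage display library on the peptide. The variants were designed computationally from a first round of random CDR variants and then made and measured. Several design methods are mixed in this list. AlphaSeq pools MATa yeast showing the antibodies with MATalpha yeast showing the peptide. Pairs that bind mate more often; barcode pairs of the diploids are counted by sequencing. Read counts were normalised to the haploid input and turned into Kd by a linear fit to BCL2-family pairs of known affinity, for each replicate. The assay was run in six technical replicates.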

The variants keep the heavy chain, the linker and the frameworks of Ab-14 (scFv order VH, the linker GGGGSGGGGSGGGGS, VL).
VH: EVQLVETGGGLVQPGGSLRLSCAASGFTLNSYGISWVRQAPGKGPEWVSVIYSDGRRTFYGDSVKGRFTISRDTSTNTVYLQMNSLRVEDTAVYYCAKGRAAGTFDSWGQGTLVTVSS
VL: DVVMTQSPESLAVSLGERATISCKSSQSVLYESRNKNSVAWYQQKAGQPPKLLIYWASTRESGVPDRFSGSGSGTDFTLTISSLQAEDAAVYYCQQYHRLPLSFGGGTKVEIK

Substitutions are numbered in sequence along the VL above, starting at 1 (not Kabat). This list holds designs with at most six substitutions. Values are apparent Kd, the geometric mean of the replicates that gave a signal; lower means stronger binding. Where no diploid with the target was found in any replicate, the entry reads "no signal": below detection, most likely a poor binder, though not proof of it. The parent sequence was in this pool as ten entries: three were never detected, three once, and four in most replicates, with averages from 2.2 nM to 240 nM. Nonspecific signal, from three strains lacking the peptide, appeared in 4% of pairings of all light chain designs, centred on 430 nM (5% of these signals below 38 nM); values are not corrected for it. A sequence measured in both rounds can read differently, since the two assays cover different ranges. In the paper, a design with two or fewer of six values counts as a poor binder.

| changes | Kd | seen in |
|---|---|---|
| Q27G/V29W/W56H/S62Q | 6.9 nM | 6 of 6 |
| S25L/S26Q/V29W/W56G/A57G | 1.7 nM | 6 of 6 |
| S38D/W56M/H98N | no signal | 0 of 6 |
| S25L/S26R/Q27M/V29T/W56Y | 5.3 nM | 6 of 6 |
| R34E/Q95L | 5.1 nM | 3 of 6 |
| K24A/Q27I/V29Y/R34P/W56E | 10 nM | 6 of 6 |
| S25V/S33E/W56D | 2.8 nM | 6 of 6 |
| S25L/S26E/V29W/K36P/W56N/T59Q | 850 pM | 6 of 6 |
| Y31D/S103F | 76 nM | 5 of 6 |
| S25L/L30E/Y31V/E32L/W56N/S62A | 490 pM | 6 of 6 |
| Q27I/V29Y/Y31E/E32L/W56E | 590 pM | 6 of 6 |
| S25M/S58M/Y97T | no signal | 0 of 6 |
| S26G/Q27D/S28G/W56G | 1.0 nM | 6 of 6 |
| S25L/N35M/W56N/T59Q/S62Q | 2.9 nM | 6 of 6 |
| S25A/R34D/N37F/W56G | 7.8 nM | 6 of 6 |
| S25V/S26Q/L30M/W56E | 2.8 nM | 6 of 6 |
| S25G/V29F/L30P | no signal | 0 of 6 |
| V29W/R34G/W56H | 630 pM | 6 of 6 |
| S25L/Q27F/V29Y/W56E | 1.5 nM | 6 of 6 |
| S26E/Q27L/S38Q/W56Q | 6.8 nM | 6 of 6 |
| S25V/V29W/W56E | 340 pM | 6 of 6 |
| L30P/Y31M/W56D | 700 pM | 6 of 6 |
| S25Q/L30D/S38A/W56D/Q96M/R99W | 1.3 nM | 6 of 6 |
| S25I/L30W/W56N | 520 pM | 6 of 6 |
| Y31T/R34Q/K36S/N37H | 12 nM | 6 of 6 |
| S26Q/R34V/S62I/H98F | 59 nM | 6 of 6 |
| W56G/T59S | 4.3 nM | 6 of 6 |
| S25V/S26M/V29H/W56N | 680 pM | 6 of 6 |
| S25L/S26M/S28L/W56N/T59Y/S62Q | 2.2 nM | 6 of 6 |
| S26K/Y31S/S38P/Q95A | no signal | 0 of 6 |
| S25F/S26E/V29H/W56N/T59Q | 1.2 nM | 6 of 6 |
| S25N/R34D/R60P/Q96V/R99S | no signal | 0 of 6 |
| S25L/S26P/Q27N/V29T/N35Q/W56S | 5.7 nM | 6 of 6 |
| S25L/V29D/N35M/W56G | 1.2 nM | 6 of 6 |
| S25L/W56N/Q96S | 750 pM | 6 of 6 |
| S25L/V29M/K36P/W56N/T59Q | 170 pM | 6 of 6 |
| R34H/W56A/L102I | 76 nM | 4 of 6 |
| S25L/L30W/W56D | 530 pM | 6 of 6 |
| S25Q/S28A/V29F/Y31E/W56D/S58N | 660 nM | 1 of 6 |
| S26L/K36F/W56N/S62D | 2.3 nM | 6 of 6 |
| Q27I/V29Y/Y31G/S33K/R34V/W56E | 710 pM | 6 of 6 |
| V29W/L30G/W56H | 2.9 nM | 6 of 6 |
| S25F/V29W/W56N/T59Q/S62Q | 360 pM | 6 of 6 |
| S25I/L102Y | 140 nM | 1 of 6 |
| S25F/V29Y/W56N/E61C | 10 nM | 6 of 6 |
| S26G/Q27W/W56M | 300 nM | 1 of 6 |
| Q27W/V29E/N35I/W56K | 9.0 nM | 6 of 6 |
| S25L/V29W/N35W/W56G/T59Q | 13 nM | 6 of 6 |
| S25L/S26Q/W56N/T59Y/E61M | 1.5 nM | 6 of 6 |
| S26E/W56H/S62D | 1.2 nM | 6 of 6 |
| K36Q/W56K | 4.7 nM | 5 of 6 |
| K24H/Q27P/L30E/W56N/T59N | 8.0 nM | 6 of 6 |
| K24H/Q27P/W56N/S62E/Q96D | 830 pM | 6 of 6 |
| S25V/S26Q/W56D/T59Q | 330 pM | 6 of 6 |
| S25L/V29H/N35M/W56N/S62M | 760 pM | 6 of 6 |
| S25L/W56D/E61L | 410 pM | 6 of 6 |
| S25I/R34N/N37V/W56T/Y97C | no signal | 0 of 6 |
| K24H/S25V/Q27P/V29W/W56N | 1.1 nM | 6 of 6 |
| S25M/Y31M/W56N | 570 pM | 6 of 6 |
| S25L/S26Q/N35Q/W56N | 1.5 nM | 6 of 6 |
| S25L/S26E/V29Y/L30N/W56N | 1.5 nM | 6 of 6 |
| S26M/Y31D/R34L | 39 nM | 6 of 6 |
| S25V/S26Q/V29F/N37M/W56N/S62E | 1.6 nM | 6 of 6 |

Extract of 8 entries:

| changes | Kd | seen in |
|---|---|---|
| S25F/V29Y/W56N/E61C | 10 nM | 6 of 6 |
| S25V/S26Q/L30M/W56E | 2.8 nM | 6 of 6 |
| S25L/W56N/Q96S | 750 pM | 6 of 6 |
| Q27I/V29Y/Y31G/S33K/R34V/W56E | 710 pM | 6 of 6 |
| S26G/Q27W/W56M | 300 nM | 1 of 6 |
| S25F/S26E/V29H/W56N/T59Q | 1.2 nM | 6 of 6 |
| S25L/V29M/K36P/W56N/T59Q | 170 pM | 6 of 6 |
| V29W/R34G/W56H | 630 pM | 6 of 6 |